Assays:
Assay type in all cases: in vivo
Details in all cases: before administration of AE-PM
UGT1A1 = assay: Expression level of UGT1A1 in rat liver (UHPLC-MS/MS signature peptide) and correlation with AUC
Description: (§1) The detection method for UGT1A1 and nine other transporter proteins in the liver was comprehensively investigated in our study (35).
(§2) The sequence of characteristic peptides that corresponded to UGT1A1 and the other nine transporter proteins were based on our previous experiments and listed in Table 3 .
(§3) Total membrane protein was isolated (in triplicate) from liver tissue samples according to the Native Membrane Protein Extraction Kit protocol. Subsequently, protein concentrations were determined by the BCA Protein Assay Kit. 10 µl of 5 mg/ml (or lower concentration) of a hepatocyte membrane protein incubated with 20 µl of dithiothreitol (100 mM) and 50 µl of ammonium bicarbonate buffer (50 mM, pH 7.8). After incubation at 95°C for 5 min, 20 µl of iodoacetamide (20 mM) was added to the mixture, followed by incubation at 37°C for 20 min in the dark. To concentrate the samples, ice-cold methanol (0.5 ml), chloroform (0.2 ml), and water (0.2 ml) were added. After centrifugation at 4°C for 5 min at 16,000 g, the supernatant was discarded and the pellet was washed once with ice-cold methanol (0.25 ml) and resuspended with 40 µl of reconstitution solution (equal volume of 3% sodium deoxycholate (w/v) and 5 mM ammonium bicarbonate buffer). Finally, the protein sample was digested with 10 µl of trypsin. The protein-to-trypsin ratio was 25:1 (w/w). […]

BSEP = assay: Expression level of BSEP in rat liver (UHPLC-MS/MS signature peptide) and correlation with AUC
Description: as §1, §2, §3

OATP1A4 = assay: Expression level of OATP1A4 in rat liver (UHPLC-MS/MS signature peptide) and correlation with AUC
Description: as §1, §2, §3

OCT1 = assay: Expression level of OCT1 in rat liver (UHPLC-MS/MS signature peptide) and correlation with AUC
Description: as §1, §2, §3

OATP1A2 = assay: Expression level of OATP1A2 in rat liver (UHPLC-MS/MS signature peptide) and correlation with AUC
Description: as §1, §2, §3

MRP2 = assay: Expression level of MRP2 in rat liver (UHPLC-MS/MS signature peptide) and correlation with AUC
Description: as §1, §2, §3

MDR1 = assay: Expression level of MDR1 in rat liver (UHPLC-MS/MS signature peptide) and correlation with AUC
Description: as §1, §2, §3

SMILES: S=C=Nc1cccc2ccccc12 [ANIT, alpha-naphthylisothiocyanate]
- Reduction of UGT1A1 expression level compared with the control group (UGT1A1): 38.22%
- Reduction of BSEP expression level compared with the control group (BSEP): 38.15%
- Reduction of OATP1A4 expression level compared with the control group (OATP1A4): 42.58%
- Reduction of OCT1 expression level compared with the control group (OCT1): 62.92%
- Reduction of OATP1A2 expression level compared with the control group (OATP1A2): 24.28%
- Reduction of MRP2 expression level compared with the control group (MRP2): 47.90%
- Reduction of MDR1 expression level compared with the control group (MDR1): 72.37%

Source: article PMC8245786, “Comparative Studies on Multi-Component Pharmacokinetics of Polygonum multiflorum Thunb Extract After Oral Administration in Different Rat Models” (Frontiers in Pharmacology, 2021)
